Assay results from US4757049A, “Process for using endogenous enkephalins and endorphins to stimulate the immune system of patients with aids” (TNI Pharmaceuticals, Inc., priority 1986, dated 1988).

Conditions: for Blood Pressure: infusion from 9:00

CSCC[C@H](NC(=O)[C@H](Cc1ccccc1)NC(=O)CNC(=O)CNC(=O)[C@@H](N)Cc1ccc(O)cc1)C(=O)O [Methionine-Enkephalin, Tyr--Gly--Gly--Phe--Met]
Blood Pressure (Volunteer 1, 0.010 mg/kg, readings in block order: 9:10, 9:20, 9:30, 10 a.m., 11 a.m., 1 p.m., 4 p.m., Second Day 8:55, 0.01 mg/kg): 100/70 and 110/70
Neurological evaluation (Volunteer 1, 10 micrograms/kg): slight nystagmus 1 to 2 hours after infusion
Blood Pressure (Volunteer 2, 0.010 mg/kg, readings in block order: 9:10, 9:20, 9:30, 10:00, 11:00, 1 p.m., 4 p.m., Next Day 8:44, 0.01 mg/kg): 130/80
Neurological evaluation (Volunteer 2, 10 micrograms per kilogram): slight nystagmus 2 hours after infusion
Neurological evaluation (Volunteer 3, 0.001 mg/kg): Slight nystagmus
Blood Pressure (Volunteer 3, 0.001 mg/kg, readings in block order: 9:10, 9:20, 9:30, 10:00, 11:00, 1 p.m., 4 p.m., Next Day 8:55, 0.001 mg/kg): 110/80
Blood Pressure (Volunteer 4, one microgram per kg, readings in block order: 9:10, 9:20, 9:30, 10:00, 11:00, 1:00 p.m., 4:00, Next Day 8:55 a.m.): 110/80 and 100/80

Several values for one entry are separate records, joined by “and”; a condition that tells them apart may be missing. Equal values may be shown once. Read-outs that look alike come from different tables or passages of the source.
